“Also recorded” adds a separate entry of the source.
System: PANC-1
Experiment: cell viability assay, cancer cell killing effect on PANC-1
Assay type: cell-based
Settings: FIG. 5A; pancreatic cancer cells

## docetaxel-aconitic anhydride conjugate [A3Tx]
  cytotoxicity against cancer cell line PANC-1: higher toxicity toward cancer cell line; also recorded: higher cytotoxicity than DTX
